Data from paper PMC9928118, “Funneling modulatory peptide design with generative models: Discovery and characterization of disruptors of calcineurin protein-protein interactions” (PLOS Computational Biology, 2023).
Blank lines part the entries; values can stand above or below the molecule they belong to.

Key:
[1] = test system: GST-tagged Cn; test: PEPperPRINT peptide microarray binding assay with GST-tagged Cn
Source text: We then estimated in-silico the binding strength of the various peptides to Cn by template-based docking followed by flexible backbone refinement using Modeller and PepCrawler (Figs 4 and S4). In parallel, we performed a medium-throughput qualitative binding assay using a PEPperPRINT peptide microarray to evaluate the direct binding of Cn to selected peptides (Figs 4 and S5, S3 Data).
Fig 4 Medium-throughput filtering by structural modeling and microarray screening. (a) Depiction of the structural modeling protocol: after alignment to the known PxIxIT binding site, an efficient flexible backbone structure refinement algorithm is applied to estimate the docking energy. […] (f) Scatter plot of the sequence likelihood (normalized by length, higher is better) against fluorescence level (higher is better, see Methods for details of the data analysis).
In parallel, selected peptides were tested for Cn binding on a chip microarray (PEPperPRINT). […] Following extensive washing, binding was detected by applying a fluorescently labeled (Alexa-Fluor 647) GST antibody. […] The experiment was repeated five times, and Z-normalized fluorescence levels were determined following post-processing of the raw data (Methods, S5A, S5B and S5C Fig).
The peptide array was prepared as a custom array pepper chip (PEPperPRINT). […] Fluorescence levels were next averaged over the two ROI for each peptide and Z-normalized. […]

[2] = test system: GST-tagged Cn; test: as above; details: max over the duplicate spots (Location on chip)
[3] = molecular target: Calcineurin (Cn); details: PVIVIT peptide; read-out: Dissociation constant kd for Cn; cited from earlier work
[4] = molecular target: T1, catalytic domain of Calcineurin (Cn A), residues 2-347 with Y341S, L343A, M347D (UniProt Q08209 2-347, Y341S | L343A | M347D); test: fluorescence polarisation; competition: variable concentrations of non-labeled peptide added to 100 nM FITC-labeled PVIVIT peptide and 4 uM Cn A, 96-well plate, triplicate; fitted to a single site inhibition model; details: both partners purified
T1 construct: Calcineurin catalytic domain (calcineurin A), residues 2-347, with substitutions Y341S, L343A, M347D; Expressed as a cleavable GST fusion; source: E. coli BL21, purified (Glutathione Sepharose 4 Fast Flow, size exclusion on Superdex 75)

- Chip Fluorescence (mean) ([1]; peptide microarray, GST-tagged Cn, mean over the duplicate spots (Location on chip)): 0.06582
- Chip Fluorescence (max) [2]: 2.341
Molecule: MAGPHPVIVITGPHEE [PVIVIT-containing synthetic peptide]

- Fluorescence level on the chip (Cn binding) ([1]; 1mg/ml GST-tagged Cn overnight at 4°C, Alexa-Fluor 647 GST antibody, Z-normalized, averaged over five repetitions, result in words): only weak fluorescence levels
Molecule: CC[C@H](C)[C@H](NC(=O)[C@@H](NC(=O)[C@@H]1CCCN1C(=O)[C@H](Cc1c[nH]cn1)NC(=O)[C@@H]1CCCN1C(=O)CNC(=O)[C@H](C)NC(=O)[C@H](CCSC)NC(C)=O)C(C)C)C(=O)N[C@H](C(=O)N[C@H](C(=O)N[C@H](C(=O)NCC(=O)N1CCC[C@H]1C(=O)N[C@@H](Cc1c[nH]cn1)C(=O)N[C@@H](CCC(=O)O)C(=O)N[C@@H](CCC(=O)O)C(N)=O)[C@@H](C)O)[C@@H](C)CC)C(C)C [PVIVIT, reference compound]
- Kd [3]: 0.5 to 2 µM

- IC50 [4]: 10.2 µM
B1: PVIVIT peptide (non-labeled) (peptide)
peptide: MAGPHPVIVITGPHEE
modifications: N-terminal acetylation, C-terminal amidation
notes: PVIVIT, synthetic PxIxIT variant, positive control; source: synthetic peptide (peptide2 Inc)
